The values below come from ChEMBL document CHEMBL2010704 (J Med Chem, 2012).

Amino acid sequences for entries named in this document (tags omitted). A change or cut given only in a name is not applied to a line headed by its entry.
UniProt Q9UNQ0: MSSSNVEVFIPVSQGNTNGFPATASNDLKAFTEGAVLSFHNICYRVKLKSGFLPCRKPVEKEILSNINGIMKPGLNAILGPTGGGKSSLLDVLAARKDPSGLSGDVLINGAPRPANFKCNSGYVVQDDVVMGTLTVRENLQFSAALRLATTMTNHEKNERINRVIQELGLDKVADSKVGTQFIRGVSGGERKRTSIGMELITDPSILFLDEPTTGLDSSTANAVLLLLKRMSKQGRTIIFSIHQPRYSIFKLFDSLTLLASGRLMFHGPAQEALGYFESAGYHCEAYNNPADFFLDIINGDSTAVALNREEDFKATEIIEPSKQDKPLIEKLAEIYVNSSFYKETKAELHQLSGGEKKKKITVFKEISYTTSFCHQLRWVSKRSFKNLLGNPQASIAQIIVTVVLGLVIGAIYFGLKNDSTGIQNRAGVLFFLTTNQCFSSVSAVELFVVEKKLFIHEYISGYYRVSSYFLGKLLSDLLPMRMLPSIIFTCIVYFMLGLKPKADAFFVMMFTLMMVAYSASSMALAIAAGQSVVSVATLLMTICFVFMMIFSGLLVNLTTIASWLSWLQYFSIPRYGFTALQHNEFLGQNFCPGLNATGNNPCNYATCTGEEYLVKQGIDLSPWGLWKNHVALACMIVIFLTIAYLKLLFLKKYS

This test addresses Broad substrate specificity ATP-binding cassette transporter ABCG2 (Homo sapiens, UniProt Q9UNQ0). Description: Inhibition of ABCG2-mediated mitoxantrone efflux in HEK293 cells by flow cytometry. Type of test: cell-based. A digest of the protocol:
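HEK293-ABCG2 cells seeded at 1 × 10^5 cells/well and grown 48 h, then loaded with 5 μM mitoxantrone for 30 min at 37 °C with or without compound. Cells washed in PBS and trypsinized; intracellular fluorescence read by flow cytometry on at least 10,000 events. […] IC50 from a concentration range; mean ± SD, n ≥ 3.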
For orientation: In flow cytometry, cells or beads pass a laser one at a time.

Regarding `COc1ccc(CCNC(=O)c2cc(=O)c3c(OCc4ccccc4)cccc3o2)cc1OC`, the concentration for half-maximal inhibition (IC50) – broadly, the point on the concentration scale where inhibition reaches its midpoint – was 170 nM.
